{"sequences": {"note": "Amino acid sequences for entries named in this document (tags omitted). Residues count along the entry.", "UniProt P22897, 19-1456": "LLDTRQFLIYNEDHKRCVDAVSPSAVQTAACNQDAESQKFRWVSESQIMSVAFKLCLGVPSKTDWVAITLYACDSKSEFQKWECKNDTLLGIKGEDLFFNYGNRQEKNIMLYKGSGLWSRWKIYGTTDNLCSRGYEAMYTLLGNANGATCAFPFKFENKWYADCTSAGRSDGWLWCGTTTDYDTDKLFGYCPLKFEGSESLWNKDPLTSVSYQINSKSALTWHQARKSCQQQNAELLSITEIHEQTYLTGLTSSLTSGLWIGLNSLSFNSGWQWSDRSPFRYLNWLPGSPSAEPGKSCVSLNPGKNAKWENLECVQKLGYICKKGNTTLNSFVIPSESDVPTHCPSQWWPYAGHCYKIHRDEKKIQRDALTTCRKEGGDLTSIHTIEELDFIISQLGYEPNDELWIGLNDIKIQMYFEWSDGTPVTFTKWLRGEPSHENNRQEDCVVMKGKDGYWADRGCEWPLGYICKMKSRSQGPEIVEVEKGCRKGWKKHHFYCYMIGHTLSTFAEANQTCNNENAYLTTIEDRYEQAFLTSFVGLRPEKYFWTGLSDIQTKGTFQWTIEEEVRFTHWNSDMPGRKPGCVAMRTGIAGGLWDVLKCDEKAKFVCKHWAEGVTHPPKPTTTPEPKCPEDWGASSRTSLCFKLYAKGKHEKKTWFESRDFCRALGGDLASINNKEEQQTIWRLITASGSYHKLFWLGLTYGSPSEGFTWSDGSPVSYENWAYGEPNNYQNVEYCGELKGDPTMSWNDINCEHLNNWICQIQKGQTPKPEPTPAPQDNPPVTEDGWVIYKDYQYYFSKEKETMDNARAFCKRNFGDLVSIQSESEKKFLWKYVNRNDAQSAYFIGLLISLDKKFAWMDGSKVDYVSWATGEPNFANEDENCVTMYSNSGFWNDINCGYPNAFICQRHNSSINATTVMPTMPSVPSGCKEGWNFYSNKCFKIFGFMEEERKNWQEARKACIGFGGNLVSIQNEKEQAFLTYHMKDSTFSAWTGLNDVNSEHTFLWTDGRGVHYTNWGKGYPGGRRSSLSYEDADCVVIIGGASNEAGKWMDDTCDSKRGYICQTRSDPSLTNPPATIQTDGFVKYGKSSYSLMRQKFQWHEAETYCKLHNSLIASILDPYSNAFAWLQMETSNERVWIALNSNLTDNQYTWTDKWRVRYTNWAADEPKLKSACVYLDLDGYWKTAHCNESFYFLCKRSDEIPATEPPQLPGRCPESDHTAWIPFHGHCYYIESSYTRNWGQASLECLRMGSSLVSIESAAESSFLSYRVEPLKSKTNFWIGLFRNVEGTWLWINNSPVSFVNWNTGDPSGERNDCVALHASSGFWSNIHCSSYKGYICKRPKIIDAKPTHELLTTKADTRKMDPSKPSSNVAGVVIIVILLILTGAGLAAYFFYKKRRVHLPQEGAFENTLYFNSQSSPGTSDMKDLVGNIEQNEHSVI"}, "source": "patent US12070504B1", "about": "“Compounds and methods for altering cyto-states of cells that express c-type lectin receptors” (Physis International LLC, priority 2020, dated 2024)", "biological_target": "CD206 (Homo sapiens, UniProt P22897)", "conditions": "read-out: Kd for tilmanocept/CD206; mannose as carbohydrate recognition moiety", "note": "pKd: −log10 of the molar value. Where “and” joins values, the source holds several entries; their conditions need not be identical. Equal values may be shown once."}
{"substance": "dextran 3-[(2-aminoethyl)thio]propyl 17-carboxy-10,13,16-tris(carboxymethyl)-8-oxo-4-thia-7,10,13,16-tetraazahepta-dec-1-yl 3-[[2-[[1-imino-2-(D-mannopyranosylthio)ethyl]amino]ethyl]thio] propyl ether complexes [tilmanocept]", "values": [{"measurement": "pKd", "value": "~10.52 and 10.52"}]}
